In Sander's compilation of Henry's law constants (doi:10.1021/ac00058a023):

Experiment: Henry solubility constant Hcp at 298.15 K (mol/(m3 Pa))
Details: reference: Li and Carr (1993)

Henry solubility constant Hcp: 0.0022
SMILES: CCCCOCCCC [dibutyl ether]
